Screens (PubChem BioAssay)
CDK5 p35 inh – inhibitors of human CDK5/p35 kinase | 0.01% of 330,000 active | inhibition, % at 10 µM | Recombinant CDK5/p35, ADP-Glo luminescence, 60 min;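 active = highest replicate inhibition of at least 50% and at least 75% of replicates reaching 50%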;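 note: plate controls were DMSO neutral control for no effect and GW8510 at 10 µM for full effect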
DYRK1A inh – inhibitors of rat Dyrk1A kinase. Q63470. ADP-Glo luminescence, NFATc1 peptide. inhibition, % at 12.5 µM. 0.43% of 310,000 active. AID 504441; in the data active = inhibition above about 50%;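 note: plate controls were vehicle with enzyme for no effect and no enzyme for full effect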
CAL PDZ FP-1 – inhibitors of human CAL PDZ peptide binding; purified CAL PDZ, TMR-peptide fluorescence polarization, 1 h; 0.92% of 300,000 active; Q9HD26; inhibition, % at 24.9 µM;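 active = mean inhibition of at least 30% with at least half of replicates also reaching 30%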;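 note: 0% = DMSO neutral control and 100% = excess unlabeled competitor peptide PRC23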
dFosB act – activators of mouse delta FosB homodimer. activation, % at 25 µM. P13346. purified delta FosB, TAMRA-CDK5 oligo fluorescence polarization; percent of positive-control signal above neutral wells. 0.99% of 340,000 active;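 active = mean activation above about 17%, with every replicate also reaching it, limit read from the data, passing the limit was not always enough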
UUG fidelity – yeast start codon fidelity modulation | S. cerevisiae UUG-firefly luciferase reporter, luminescence/redox ratio | activity score, % at 18.7 µM | 0.13% of 350,000 active | AID 602363;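 active means replicate mean at a twofold rise or more, about +100% in these data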;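 further: firefly luciferase made from a UUG start codon reports start codon fidelity; reporter light over untreated wells divided by growth signal over untreated wells; some hits fall short of that in this replicate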
CAL PDZ FP-2 – inhibitors of human CAL PDZ peptide binding | purified CAL PDZ, TMR-peptide fluorescence polarization, 1 h | 0.02% of 330,000 active | inhibition, % at 20 µM | AID 504414 | Q9HD26;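 active = highest replicate inhibition of at least 40%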;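 note: plate controls were DMSO neutral control wells for no effect and unlabeled competitor peptide control wells for full effect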
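Material: tagged CAL PDZ protein CerCALP, purified; buffer or medium: sodium phosphate/NaCl buffer pH 7.4 with TCEP, IgG, Thesit; also added: fluorescent TMR peptide probe; schedule: 1 h incubation at room temperature before polarization reading; technique: fluorescence polarization from S- and P-plane intensities, G-factor corrected; control set: unlabelled peptide and DMSO controls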
Starred values were filed as active, the others as inactive; . = no result given. Only some compounds are listed: those with a hit (about 1.7% of all), similar ones and a draw of the others.

1. CCNC(=O)C[C@@H]1CC[C@@H]2[C@@H](COc3ccc(NC(=O)Nc4c(C)noc4C)cc3C(=O)N2C)O1
2. O=C(Cc1ccccc1)N1C[C@@H]2[C@H](c3ccccc31)[C@H](CO)N2C(=O)C1CC1
3. CC(C)C#Cc1cnc2c(c1)C(=O)N([C@@H](C)CO)C[C@@H](C)[C@H](CN(C)C(=O)Nc1cccc(F)c1)O2
4. C[C@@H](NC(=O)C[C@@H]1CC[C@@H]2[C@H](COC[C@H](O)CN2C)O1)c1ccccc1
5. Cc1ccc(NC(=O)COC(=O)Cn2ccc(=O)[nH]c2=O)cc1C
6. O=C(COC(=O)/C=C/c1ccc([N+](=O)[O-])cc1)Nc1ccc2[nH]c(=O)[nH]c2c1
7. O=C(COC(=O)/C=C/c1ccc(C(F)(F)F)cc1)Nc1ccc2[nH]c(=O)[nH]c2c1
8. C=CCn1cnnc1SCC(=O)N(C)CC1COc2ccccc2O1 (configuration not stated)

assay / compound	1	2	3	4	5	6	7	8
CDK5 p35 inh	.	.	.	.	-1	1	1	1
DYRK1A inh	.	.	.	.	-6	14	10	2
CAL PDZ FP-1	.	.	.	.	40*	-10	0	48*
dFosB act	.	.	.	.	-8	31*	15	2
UUG fidelity	-26	33	10	-17	3	-12	-20	-10
CAL PDZ FP-2	.	.	.	.	0	-3	-4	0

9. CCC(C)NC(=S)Nc1ccccc1 (configuration not stated)
10. Cc1ccc2nc(NC(=O)C3CCN(S(=O)(=O)c4cccs4)CC3)sc2c1
11. Cc1cccc(NC(=O)C2CCN(S(=O)(=O)c3cccs3)CC2)c1
12. COc1cc(/C=N/Nc2nc3ccccc3s2)ccc1OC(=O)c1ccccc1F
13. COc1cc(OC)cc(C(=O)Oc2ccc(/C=N/Nc3nc4ccccc4s3)cc2OC)c1
14. O=C(/C=C/c1ccc2c(c1)OCO2)Nc1nc2ccccc2s1
15. Cc1ccc2nc(NC(=O)/C=C/c3ccc4c(c3)OCO4)sc2c1
16. COc1ccc(-c2nn(CCC#N)cc2/C=N/O)cc1OC

assay / compound	9	10	11	12	13	14	15	16
CDK5 p35 inh	-1	-2	-1	-3	-2	0	1	1
DYRK1A inh	3	34	1	7	-2	0	5	5
CAL PDZ FP-1	75*	.	-2	72*	.	2	1	58*
dFosB act	4	33*	-6	-19	-12	19*	-5	5
UUG fidelity	-12	7	-15	.	-13	-15	-14	.
CAL PDZ FP-2	0	.	-1	-2	-1	0	-1	9

17. COc1cc(Br)c(/C=C/c2ccc3cccc(O)c3n2)cc1OC
18. Oc1cccc2ccc(/C=C/c3ccccc3Br)nc12
19. Cc1cc(OCC(=O)Nc2nnc(C3CC3)s2)ccc1C(C)C
20. Cc1ccc(C(C)C)cc1OCC(=O)Nc1nnc(C2CC2)s1
21. C[C@H]1CN([C@@H](C)CO)C(=O)c2cc(Br)cnc2O[C@@H]1CN(C)C(=O)C1CCCCC1
22. N#Cc1ccc(-c2ccc3c(c2)[C@H]2[C@H](CCN2C(=O)CN2CCOCC2)[C@@H](CO)N3)cc1
23. CCc1ccccc1N1C(=O)CC(Sc2nccc(C)n2)C1=O (configuration not stated)
24. Cc1ccc(N2C(=O)CC(Sc3nccc(C)n3)C2=O)cc1 (configuration not stated)

assay / compound	17	18	19	20	21	22	23	24
CDK5 p35 inh	2	0	0	-1	.	.	-1	0
DYRK1A inh	9	-2	-6	.	.	.	12	-5
CAL PDZ FP-1	0	59*	45*	-6	.	.	100*	.
dFosB act	-12	2	0	-1	.	.	-4	-3
UUG fidelity	-22	-20	-5	-10	8	-9	-12	-10
CAL PDZ FP-2	2	1	0	0	.	.	.	.

Compound profiles, from the list above. Screens in order: CDK5 p35 inh	DYRK1A inh	CAL PDZ FP-1	dFosB act	UUG fidelity	CAL PDZ FP-2
CC(C)C#Cc1cnc2c(c1)C(=O)N([C@@H](C)CO)C[C@@H](C)[C@H](CN(C)C(=O)Nc1cccc(F)c1)O2 is listed as .	.	.	.	10	.
CCC(C)NC(=S)Nc1ccccc1 (configuration not stated) is listed as -1	3	75*	4	-12	0
Cc1ccc2nc(NC(=O)/C=C/c3ccc4c(c3)OCO4)sc2c1 is listed as 1	5	1	-5	-14	-1

Carrying on.
25. CN1CCN(S(=O)(=O)CC2(C)C3CCC2(C)C(=O)C3Br)CC1 (configuration not stated)
26. CCN1CCN(S(=O)(=O)CC2(C)C3CCC2(C)C(=O)C3Br)CC1 (configuration not stated)
27. CCN(CC)CCN(C(=O)c1ccc2ccccc2c1)c1nc2cc3c(cc2s1)OCO3
28. O=C(Nc1ccccc1)N1CCCCN2[C@@H](CO)[C@H](c3ccc(C4=CCCCC4)cc3)[C@@H]2C1
29. CCCCNC(=S)N/N=C/C1=CCC2CC1C2(C)C (configuration not stated)
30. C=C(C)CNC(=S)N/N=C/C1=CCC2CC1C2(C)C (configuration not stated)

assay / compound	25	26	27	28	29	30
CDK5 p35 inh	1	0	1	.	0	-1
DYRK1A inh	11	0	8	.	5	6
CAL PDZ FP-1	-1	41*	1	.	-5	49*
dFosB act	0	4	53*	.	-15	-10
UUG fidelity	-11	.	-8	55	-20	.
CAL PDZ FP-2	-2	0	-2	.	0	0
